OPERA 2.9 data: water solubility values

Data: OPERA 2.9 data sets, kmansouri/OPERA on GitHub.

Water solubility is log10 of mol/L, nominally at 25 °C; higher is more soluble. "n/a" marks a cell with nothing listed here.

compound,name,water solubility (log10 mol/L)
O=C(O)c1ccc(/N=N/c2c(O)ccc3cc(S(=O)(=O)[O-])ccc23)cc1.O=C(O)c1ccc(/N=N/c2c(O)ccc3cc(S(=O)(=O)[O-])ccc23)cc1.[Sr+2],C.I. Pigment Orange 79,-5.06
Cc1ccc([N+](=O)[O-])cc1N=Nc1c(O)c(C(=O)Nc2ccccc2)cc2ccccc12,C.I. Pigment Red 22,-7.558
Clc1cccc(Oc2ccccc2)c1Cl,"2,3-dichlorodiphenyl ether",-4.67
CC(=O)Nc1ccc(NC(=O)c2cc3ccccc3c(N=Nc3cc(C(N)=O)ccc3Cl)c2O)cc1,n/a,-7.304
C[C@H](N)[C@H](O)c1cccc(O)c1,Metaraminol,-1.116
CCCCC(Cc1cc(C(C)(C)C)c(O)c(C(C)(C)C)c1)(C(=O)OC1CC(C)(C)N(C)C(C)(C)C1)C(=O)OC1CC(C)(C)N(C)C(C)(C)C1,n/a,-5.685
CCN(Cc1ccncc1)C(=O)C(CO)c1ccccc1 (stereo not given),Tropicamide,-2.88
COCCCn1c(=O)c2c(N)c3c(=O)c4ccccc4c(=O)c3c(N)c2c1=O,C.I. Disperse Blue 60,-8.181
C=CC(=O)OCC(O)COC(=O)C(C)(CCC)CCCC (stereo not given),n/a,-3.325
CCCCNS(=O)(=O)c1ccccc1,N-Butylbenzenesulfonamide,-2.676
Nc1ccc(Cl)cc1C(F)(F)F,4-Chloro-2-(trifluoromethyl)aniline,-4.27
CCCSCCC,Propyl sulfide,-2.58
Cc1nccn1CCc1nc(N)nc(N)n1,n/a,-1.727
CC(=O)Nc1cccc(Br)c1,"Acetamide, N-(3-bromophenyl)- (9CI)",-2.73
C=COCCOC,1-Methoxy-2-vinyloxyethane,-0.065
CCc1cc(C(N)=S)ccn1,Ethionamide,-2.259
CCOC(=O)C1=C(C)C=CCC1(C)C,n/a,-3.412
CC1(C)COC2(CCC3=C(CC[C@@H]4[C@@H]3CC[C@@]3(C)[C@H]4CC[C@]3(O)C#N)C2)OC1,n/a,-4.41
Clc1ccc(Oc2c(Cl)cc(Cl)cc2Cl)cc1,n/a,-6.83
CC(=O)NC(N)=S,1-Acetyl-2-thiourea,-0.965
O=C(NN=Cc1ccc([N+](=O)[O-])o1)c1ccncc1,N'-(5-Nitrofurfurylidene)isonicotinic hydrazide,-3.734
CCCCCCCCCCCC(=O)N(C)C,"N,N-Dimethyldodecanamide",-3.909
CC(OC(C)(C)COC(=O)C1CC1)C1CCCC(C)(C)C1 (stereo not given),n/a,-4.892
CCC(=O)c1cccc(Cl)c1,3'-Chloropropiophenone,-1.847
C=CC(=C)CCCC(C)(C)OC(C)=O,2-methyl-6-methylideneoct-7-en-2-yl acetate,-3.597
O=C(CCc1ccc(O)cc1)c1c(O)cc(O)cc1O,"3-(4-Hydroxyphenyl)-1-(2,4,6-trihydroxyphenyl)propan-1-one",-3.348
NC(=O)NCCCCCC(=O)O,6-ureidohexanoic acid,-2.16
CC(C)NCC(O)c1ccc(NS(C)(=O)=O)cc1 (stereo not given),Sotalol,-2.542
CCOC(=O)n1ccn(C)c1=S,Carbimazole,-1.773
CC(C)[C@H]1OCC[C@]2(C[C@H]3CC[C@]2(C)C3(C)C)O1,n/a,-5.288
CC(C(=O)c1ccc(Cl)cc1)C1CC1 (stereo not given),1-(4-Chlorophenyl)-2-cyclopropylpropan-1-one,-3.775
CCC(C)(NC=O)C(=O)O (racemic),n/a,-0.582
O=C1c2ccc3c4ccc5c6c(ccc(c7ccc(c2c37)C(=O)N1c1ccc(Cl)cc1)c64)C(=O)N(c1ccc(Cl)cc1)C5=O,C.I. Pigment Red 189,-5.61
NS(=O)(=O)c1cc(C(=O)O)ccc1Cl,Sulfamido-3-chlorobenzoic acid,-2.49
OC(c1ccccc1)C(O)c1ccccc1 (racemic),n/a,-1.933

Again, the 4 entries with the lowest water solubility:

compound,name,water solubility (log10 mol/L)
COCCCn1c(=O)c2c(N)c3c(=O)c4ccccc4c(=O)c3c(N)c2c1=O,C.I. Disperse Blue 60,-8.181
Cc1ccc([N+](=O)[O-])cc1N=Nc1c(O)c(C(=O)Nc2ccccc2)cc2ccccc12,C.I. Pigment Red 22,-7.558
CC(=O)Nc1ccc(NC(=O)c2cc3ccccc3c(N=Nc3cc(C(N)=O)ccc3Cl)c2O)cc1,n/a,-7.304
Clc1ccc(Oc2c(Cl)cc(Cl)cc2Cl)cc1,n/a,-6.83

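The numbers are reported measurements, compiled and curated for the OPERA QSAR suite. A listed value is a point estimate from one report or more. Method and conditions are not stated for these values. Where a salt, mixture or single isomer is drawn, the source does not say that exactly this form was tested. Some upstream entries may be estimates or bounds without being marked so.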